These results are taken from patent US6723741B2, “Benzimidazoles and benzothiazoles and uses thereof” (Synaptic Pharmaceutical Corporation, priority 1996, dated 2004).

Protein sequences, listed by entry. Tags and fused reporters are not part of them.
UniProt P18825, whole entry, looked up: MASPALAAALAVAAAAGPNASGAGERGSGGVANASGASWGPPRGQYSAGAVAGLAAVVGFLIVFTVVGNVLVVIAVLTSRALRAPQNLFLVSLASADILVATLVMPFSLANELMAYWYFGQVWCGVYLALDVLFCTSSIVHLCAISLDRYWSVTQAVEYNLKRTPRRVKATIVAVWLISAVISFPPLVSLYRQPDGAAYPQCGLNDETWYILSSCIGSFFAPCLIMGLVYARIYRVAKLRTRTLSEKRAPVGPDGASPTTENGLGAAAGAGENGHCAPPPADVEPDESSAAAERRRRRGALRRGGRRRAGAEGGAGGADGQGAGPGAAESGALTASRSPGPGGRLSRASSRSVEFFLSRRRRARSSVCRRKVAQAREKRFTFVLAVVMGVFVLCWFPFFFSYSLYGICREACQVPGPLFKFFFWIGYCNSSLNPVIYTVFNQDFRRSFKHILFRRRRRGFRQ
UniProt P08913, whole entry, looked up: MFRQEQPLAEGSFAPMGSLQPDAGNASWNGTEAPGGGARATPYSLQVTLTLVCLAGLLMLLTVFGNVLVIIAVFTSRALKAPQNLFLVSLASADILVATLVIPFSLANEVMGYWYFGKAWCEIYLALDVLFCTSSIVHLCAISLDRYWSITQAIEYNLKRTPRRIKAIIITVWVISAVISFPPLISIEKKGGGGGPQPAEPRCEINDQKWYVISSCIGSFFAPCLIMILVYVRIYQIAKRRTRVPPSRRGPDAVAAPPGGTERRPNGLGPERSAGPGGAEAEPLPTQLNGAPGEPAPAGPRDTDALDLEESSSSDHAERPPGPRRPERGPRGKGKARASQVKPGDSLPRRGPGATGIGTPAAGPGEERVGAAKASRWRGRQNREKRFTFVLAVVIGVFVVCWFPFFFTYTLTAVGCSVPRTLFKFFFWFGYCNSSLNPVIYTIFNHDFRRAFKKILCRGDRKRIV

In assay [1] the target is human α2C adrenergic receptor (Homo sapiens, UniProt P18825). Kind of assay: Agonist activity: inhibition of forskolin-stimulated cAMP synthesis. Type of assay: cell-based. The following applies: stably transfected cells expressing human α2C.
The target in assay [2] is human α2A adrenergic receptor (Homo sapiens, UniProt P08913). Kind of assay: Radioligand binding assay, [3H]rauwolscine competition. As to conditions: cloned human α2A, LM(tk-) cell membranes.

With `c1nc2ccc(NC3=NCCS3)cc2s1`, in assay [1], the “pEC50 Alpha-2 C” value was found to be 7.77. As for `c1nc2ccc(NC3=NCCN3)cc2s1`, the “pKi Alpha-2 A” value in assay [2] is 8.07. Moreover, the “pEC50 Alpha-2 C” value in assay [1] is 8.26.
